Measurements published in patent US4997771A, “Method for measuring the BZ-1 receptor binding activity in a test sample or test compound” (Schering Corporation, priority 1987, dated 1991).

Tested on: ^3 H-flunitrazepam binding sites (benzodiazepine receptors BZ-1 and BZ-2) in rat cortex
Test: ^3 H-flunitrazepam competition binding, rat cortex
Description: Male Spraque-Sawley rats (200 to 250 gms) from Charles River Breeding Laboratories, Mass., were used to obtain brain tissue. Animals were decapitated and their brains removed. Synaptic membranes were obtained following the procedure disclosed in Life Sc., 35, 105 (1984). Cerebral cortex and cerebellum were dissected on ice and homogenized in 20 volumes of ice cold 0.32 M sucrose using a glass homogenizer fitted with a teflon pestle. The homogenates were then centrifuged at 48,000 X g for 10 min, and the resultant P2 pellets were washed twice by re-centrifugation in 50 mM Na/K phosphate buffered saline (pH 7.4). The washed pellets were pooled and then resuspended in the same buffer to a final concentration of 50 mg of original tissue weight/ml. […]
Incubations were carried out at 0° C. for 90 minutes. […] Filter-bound radioactivity was quantified through liquid scintillation counting following overnight solubilization of the receptor-radioligand complex in "Scintosol" scintillation cocktail (Isolab, Inc.). […]

Compound: Fc1ccccc1C1=NCC(=S)N(CC(F)(F)F)c2ccc(Cl)cc21 [quazepam, 7-chloro-1-(2,2,2-trifluorethyl)-5-(2-fluorophenyl)-1,3-dihydro-2H-1,4 benzodiazpeine-2-thione]
- relative proportion of ^3 H-flunitrazepam binding sites, first-named subpopulation: 55%
- relative proportion of ^3 H-flunitrazepam binding sites, second-named subpopulation: 45%
